Assays:
[1] = tested on: healthy participants; experiment: Example 2 Part A: single ascending dose (SAD) study in healthy participants, blood pressure and safety
Description: (§1) The study was performed in 3 parts in 112 healthy male and female participants, including 24 Japanese participants. Female participants were to be not of childbearing potential. The present study was designed to evaluate the safety and tolerability, PK, and exploratory PD of an oral suspension of Compound A. Parts A and B (Cohort B1 only) enrolled healthy participants and was conducted at a site in The Netherlands and Part B (Cohort B2 to B5) enrolled healthy non-Japanese participants and was conducted at a site in the United Kingdom (UK). Part C enrolled healthy Japanese participants and was conducted at the same site in the UK.
Part A was an SAD study in a planned number of 6 sequential dose escalation cohorts (3, 10, 30, 100, 150, or 250 mg) of 8 healthy participants (6 active+2 placebo) each, under fasted conditions. Eligible participants in Part A (excluding those in Cohort A7 [food effect (FE)/pH cohort]) received a single administration of study drug (Compound A or placebo) under fasted conditions. In Cohort A1 to Cohort A6, sentinel dosing was employed (1 active+1 placebo, followed after 48 hours by the remaining participants of the cohort [5 active+1 placebo]). However, in Cohort A6 (250 mg) only the 2 sentinel participants were dosed before discontinuing further enrollment, due to dose-limiting events observed in a sentinel participant. In addition to the 6 ascending dose cohorts, a cohort of 6 healthy participants (Cohort A7; 6 active, 100 mg Compound A) was included to assess the effect of food and pH on the bioavailability of Compound A in a 3-period, open-label, fixed-sequence, crossover design (FE/pH cohort).
(§2) Physical examinations, vital sign measurements (including orthostasis testing in Cohort A6, Cohort B3 to B5, and C1 to C3 at selected time points), 12-lead electrocardiogram (ECG), and clinical laboratory evaluations were performed at selected times throughout the study. […] Participants were closely monitored for adverse events (AEs). […]

[2] = tested on: healthy participants; experiment: Example 2 Part B: multiple ascending dose (MAD) study in healthy participants, blood pressure
Description: as §1
Part B was a MAD study in a planned number of 6 sequential dose escalation cohorts (10 mg QD, 30 mg QD, 30 mg BID, 60 mg BID, 125 mg BID, and ≤250 mg BID) of 8 healthy participants (6 active+2 placebo) each, under fasted conditions. However, Cohort B6 (≤250 mg BID) was cancelled because sufficient safety and PK data had been obtained at doses up to 125 mg BID. Eligible participants received study drug (Compound A or placebo) administered orally for 14 days.
Physical examinations, vital sign measurements (including orthostasis testing in Cohort A6, Cohort B3 to B5, and C1 to C3 at selected time points), 12-lead electrocardiogram (ECG), and clinical laboratory evaluations were performed at selected times throughout the study. In addition, Holter monitoring was performed for the first 24 hours post dose on Day 1 in Part A (not in FE/pH cohort), and also for the first 24 hours post dose on Day 1 and Day 14 in Parts B and C. Participants were closely monitored for adverse events (AEs). Blood samples were collected for up to 14 days (follow-up visit) after (last) study drug administration for PK analysis. In addition, blood and urine were collected for exploratory biomarker assessments and for biobanking of samples for potential analyses. […]

[3] = tested on: healthy participants; experiment: Example 2 Phase 1 SAD/MAD study overall: safety and tolerability
Description: as §1
Part A was an SAD study in a planned number of 6 sequential dose escalation cohorts (3, 10, 30, 100, 150, or 250 mg) of 8 healthy participants (6 active+2 placebo) each, under fasted conditions. Eligible participants in Part A (excluding those in Cohort A7 [food effect (FE)/pH cohort]) received a single administration of study drug (Compound A or placebo) under fasted conditions. […]
as §2

[4] = tested on: participants with pulmonary fibrosis; experiment: Phase 2 study (IPF and PPF): syncope and day 1 blood pressure
Description: A total of 278 participants with IPF were randomized and 276 participants were treated as of […] analyses data cut-off (4 Aug. 2022). Male and female participants ≥40 years of age with IPF and percent predicted forced vital capacity (ppFVC) >40% and percent predicted DLCO (ppDLCO) >25%; diagnosed within 7 years of screening; having a centrally-read chest HRCT obtained at screening that was consistent with UIP or probable UIP, or having a lung biopsy consistent with UIP were eligible to enter the study. The mean baseline ppFVC for all subjects was 76.5%. In the primary IPF cohort, participants were randomized (1:1:1) to receive 30 mg or 60 mg Compound A or placebo (PBO) twice daily for 26 weeks. Participants were stratified by standard of care (SoC) IPF therapy (pirfenidone versus nintedanib versus none) and region (Japan versus Rest of World) at randomization.
A total of 123 participants with PPF were randomized. Participants (age ≥21 years) were randomized (1:1:1) to receive 30 mg or 60 mg Compound A or PBO twice daily for 26 weeks. […] Immunosuppressive medications (mycophenolate mofetil, mycophenolic acid, azathioprine and/or tacrolimus) were permitted only if dosing is stable for ≥6 months prior to screening. […]

Structure (SMILES): CCCN(C)C(=O)OCc1c(-c2ccc(O[C@H]3CCC[C@H](C(=O)O)C3)c(C)n2)nnn1C
- Mean SBP ([1]; 100 mg fasted (food effect cohort), Day 1, 4 h): 103,8 mmHg
- Decrease in SBP and DBP ([1]; SAD cohorts): decreased SBP and DBP dose dependently, reversibly, and mostly asymptomatically
- Effect on heart rate ([1]; SAD cohorts): minimal effect on heart rate
- BP reductions in QD groups ([2]; 10 and 30 mg QD): reductions generally occurred in a Compound A dose-dependent manner
- BP reductions in BID groups vs placebo ([2]; 30, 60, 125 mg BID): no clear differences between placebo and the Compound A groups
- Magnitude of BP reductions with repeated dosing ([2]; 14 days): no clear changes in the magnitude of BP reductions with repeated dosing over the 14-day treatment period
- Heart rate change [3]: not associated with meaningful changes in heart rate
- Symptoms of BP reductions [3]: mostly asymptomatic
- Post-dose reductions in SBP on Day 1 ([4]; 30 and 60 mg arms): self-limited and not associated with any clinical sequelae
- Reductions in BP with first dose ([4]; 30 or 60 mg BID, Phase 2): Reductions in BP were noted with first dose administration
